The text below walks through data of US7511041B2, “Fused azole-pyrimidine derivatives” (Bayer Pharmaceuticals Corporation, priority 2002, dated 2009).

Chains of the proteins cited; added tags and fusions are not shown.
UniProt P48736, whole entry: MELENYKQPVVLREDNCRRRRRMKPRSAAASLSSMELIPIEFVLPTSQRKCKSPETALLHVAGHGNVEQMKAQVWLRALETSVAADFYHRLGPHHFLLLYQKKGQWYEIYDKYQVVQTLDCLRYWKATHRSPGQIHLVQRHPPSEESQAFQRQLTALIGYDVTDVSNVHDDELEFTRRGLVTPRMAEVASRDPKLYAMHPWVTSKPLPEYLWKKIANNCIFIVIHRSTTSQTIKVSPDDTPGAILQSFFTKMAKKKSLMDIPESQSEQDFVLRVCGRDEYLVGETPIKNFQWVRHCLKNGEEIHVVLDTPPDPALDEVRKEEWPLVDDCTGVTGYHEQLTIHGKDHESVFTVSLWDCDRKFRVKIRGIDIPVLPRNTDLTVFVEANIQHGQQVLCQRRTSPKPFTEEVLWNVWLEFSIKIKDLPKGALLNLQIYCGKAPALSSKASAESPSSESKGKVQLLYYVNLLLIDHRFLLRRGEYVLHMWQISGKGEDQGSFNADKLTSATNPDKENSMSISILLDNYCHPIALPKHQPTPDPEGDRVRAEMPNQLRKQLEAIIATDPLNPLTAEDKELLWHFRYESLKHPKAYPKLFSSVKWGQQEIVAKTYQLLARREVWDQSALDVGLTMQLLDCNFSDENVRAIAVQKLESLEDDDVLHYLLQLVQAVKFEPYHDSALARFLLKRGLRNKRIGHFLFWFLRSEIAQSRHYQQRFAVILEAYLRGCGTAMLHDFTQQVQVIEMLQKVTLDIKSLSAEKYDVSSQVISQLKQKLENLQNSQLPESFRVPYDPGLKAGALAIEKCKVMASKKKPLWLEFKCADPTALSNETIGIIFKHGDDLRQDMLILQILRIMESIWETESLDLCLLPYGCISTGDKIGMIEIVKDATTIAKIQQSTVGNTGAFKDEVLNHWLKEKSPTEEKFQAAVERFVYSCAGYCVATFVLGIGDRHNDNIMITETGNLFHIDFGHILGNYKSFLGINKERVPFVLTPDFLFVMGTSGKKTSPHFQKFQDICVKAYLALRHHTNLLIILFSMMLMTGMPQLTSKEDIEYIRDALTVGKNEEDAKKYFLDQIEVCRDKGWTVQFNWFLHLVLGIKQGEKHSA

For this assay, the target named is Recombinant human PI3Kγ (full length human PI3K p110γ) (Homo sapiens, UniProt P48736). Briefly: Kinase assay of PI3Kγ (solid-phase lipid kinase assay). As to conditions: read-out: in vitro; Table 1, isozyme not given. Type of assay: biochemical.

As to `COc1c(C)ccc2c1N=C(/C=C(\O)c1ccc(NC(C)=O)nc1)N1CCN=C21` [Example 1-33], the IC50 was less than 100 nM.
